This is a selection: effects in other tests are not listed, and their absence says nothing.
Tests used:
Format in all cases: physicochemical
[1] = Headspace above the soap bar: relative partition parameter (SPME-GC); settings: log of amount in headspace relative to amount in soap; 1.2% odorant mixture, grated soap, SPME 15 min
[2] = Headspace above the washing powder: relative partition parameter (SPME-GC); settings: log of amount in headspace relative to amount in washing powder; 0.5% odorant mixture, SPME 15 min
[3] = Headspace above the wet washed hair: relative partition parameter headspace/shampoo (SPME-GC); settings: log of amount in headspace above wet washed hair relative to amount in shampoo; 1% odorant mixture, 3 h standing, SPME 15 min

Musk, xylene
Activity (logarithmic partition parameter above soap) [1]: −2.397 | Activity (logarithmic partition parameter above washing powder) [2]: −2.764 | Activity (logarithmic partition parameter above wet hair) [3]: −2.974
